Where two headings read alike, the source gives them in different places.
Legend:
[1] = HPLC at 2 and 4 hours after labelling
TrR1 (breast cancer) = details: 72 hours treatment, clonogenic assay, trastuzumab-resistant cell line
SK-OV3 (ovarian cancer) = details: 72 hours treatment, clonogenic assay, trastuzumab-resistant cell line
P-gp = details: for VT of the whole brain: Logan analysis
[2] = for at least 2 weeks

With “MA-Cys-Tyr-Arg-Leu-Arg-BPA-Nle-Pro-Asn-Ile-OH [^99mTc labelled NPY1 short analogue]” the “stability in reaction milieu and human plasma” value [1] was “stable”.

In the case of T-DM1, the “T-DM1 concentration with significantly higher cytotoxicity” value (TrR1 (breast cancer)) was 10 µg/mL and the “T-DM1 concentration with significantly higher cytotoxicity” value (SK-OV3 (ovarian cancer)) was 0.01 µg/mL.

In the case of “5-(1-(2-[18F]fluoroethoxy))-[3-(6,7-dimethoxy-3,4-dihydro-1H-isoquinolin-2-yl)-propyl]-5,6,7,8-tetrahydronaphthalen [[^18F]MC225]”, the “decrease of VT of the whole brain” value (P-gp; anesthesia pretreated vs control) was 29%, the “VT of the whole brain” value (P-gp; animals pretreated with anesthesia (isoflurane 90 minutes, one week earlier)) was 7.89±1.25 and the “VT of the whole brain” value (P-gp; control animals) was 11.04±1.25.

For ^89Zr-oxalate, the radiochemical purity remaining [2] was ≥ 95%.
